# Experimental data reported in ChEMBL document CHEMBL3785033, “Disrupting Acetyl-Lysine Recognition: Progress in the Development of Bromodomain Inhibitors” (J Med Chem, 2016).
# Target: Nucleosome-remodeling factor subunit BPTF (Homo sapiens, UniProt Q12830)
# Assay: Binding affinity to BPTF (unknown origin) by isothermal titration calorimetric analysis
smiles,measurement,value
COC(=O)c1cccc(NC(=O)NC2CCN(c3ccnc(Nc4ccc(F)cc4)n3)C2)c1 (stereo unspecified),Kd,2800 nM
